From patent publication US20160289650A1, “FLUORESCENT PROTEIN BIOSENSORS TO PROBE THE CONFORMATIONAL ACTIVATION OF CDK/CYCLIN KINASES” (CENTRE NATIONAL DE LA RECHERCHE SCIENTIFIQUE (CNRS), priority 2012, published 2016) come the findings set out here.

The target of the assay is Cyclin A (UniProt P20248). The assay is described as follows: steady-state fluorescence titration of the labelled CDK2 sensor with Cyclin A.

With “C177 CDK2 (single-cysteine CDK2 mutant keeping Cys177), FITC-labelled (from UniProt P24941 1-298)”, the dissociation constant Kd came to 0.05 µM and the Maximum Fluorescence Enhancement came out at 7 fold. As for “C191 CDK2 (single-cysteine CDK2 mutant keeping Cys191), FITC-labelled (from UniProt P24941 1-298)”, the Kd worked out at 0.045 µM and the Maximum Fluorescence Enhancement came to 5 fold. With “CDKCONF labelled with FITC on C177 and C191 (from UniProt P24941 1-298)”, the Maximum Fluorescence Enhancement came out at 12 fold.
